# Reference: PubChem BioAssay AID719 (SRMLSC, 2007)
# This is a selection; strong and weak results do not stand in their true shares. Calls of active or inactive are those of the source.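 Rule for the calls: active = viability at or below 50% in the single dose screen; inactive = viability above 50%.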
# Test: antiproliferative effect on LL 47 fibroblasts – human, LL 47 cells, CellTiter-Glo luminescence, primary screen (AID 719);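 note: compound exposure lasted 72 h before the ATP readout; 100% = median luminescence of untreated cell-only wells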
# Details: LL 47 human lung fibroblast viability, ATP luminescence; at 10 µM; hits give low values
# Summary of the method: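 Assay system: human lung fibroblast line LL 47, low passage. Input: 1,150 fibroblasts seeded per well. Times: overnight cell rest, 72 h compound treatment at 37 °C. Evaluation: % viability of median cell-only signal. Technique: luminescent ATP detection, CellTiter-Glo. Control set: cell-only wells, no compound.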
row,Structure (SMILES),viability
1,CP(=S)(Nn1cnnc1)Oc1ccccc1 (configuration not stated),inactive: 96%
2,CP(=O)(NC(=O)Nc1ccccc1)Oc1ccccc1 (configuration not stated),inactive: 101%
3,CCOP(C)(=S)SCC(=O)NC(C)C(=O)O (configuration not stated),inactive: 112%
4,CP(=O)(Nc1ccccn1)Oc1ccc(Cl)cc1 (configuration not stated),inactive: 101%
5,Cc1ccc(NP(C)(=O)Oc2ccccc2)c(C)c1 (configuration not stated),inactive: 106%
6,COc1ccccc1OP(C)(=O)Nc1ccc(C)cc1 (configuration not stated),inactive: 107%
7,COc1ccc(OP(C)(=O)Nc2cccc(F)c2)cc1 (configuration not stated),inactive: 100%
8,Cc1cc(C)cc(OP(C)(=O)Nc2ccc(C)cc2C)c1 (configuration not stated),inactive: 97.7%
9,Cc1ccc(C)c(NP(C)(=O)Oc2ccccc2)c1 (configuration not stated),inactive: 99.8%
10,Cc1cc(C)cc(OP(C)(=O)Nc2ccccn2)c1 (configuration not stated),inactive: 95.1%
11,Cc1nc2ccc3ccccc3c2s1.O=[N+]([O-])c1cc([N+](=O)[O-])c(O)c([N+](=O)[O-])c1,inactive: 107%
12,COc1ccccc1OP(C)(=O)Nc1c(C)cccc1C (configuration not stated),inactive: 109%
13,CN(C)CCOC(=O)C(O)(c1ccccc1)C1CCCCC1 (configuration not stated),inactive: 98.7%
14,CCOP(C)(=S)SCC(=O)NC(C)(CC)C(=O)O (configuration not stated),inactive: 94.9%
15,CP(=O)(Nc1ccc2c(c1)OCCO2)Oc1ccccc1 (configuration not stated),inactive: 99.5%
16,Cc1ccccc1NP(C)(=O)Nc1ccccc1C,inactive: 96.5%

row,Structure (SMILES),viability
1,CP(=O)(Nc1ccccc1F)Oc1ccccc1 (configuration not stated),inactive: 97.2%
2,CCN(CC)CCCOC(=O)C(O)(c1ccccc1)C1CCCCC1 (configuration not stated),inactive: 85.1%
3,CP(=O)(Nc1ccccc1)Oc1ccc(F)cc1 (configuration not stated),inactive: 100%
4,COc1ccccc1OP(C)(=O)Nc1ccc(C)c(C)c1 (configuration not stated),inactive: 109%
5,Cc1nc2ccc3ccccc3c2o1.O=[N+]([O-])c1cc([N+](=O)[O-])c(O)c([N+](=O)[O-])c1,inactive: 112%
6,COc1ccc(OP(C)(=O)Nc2ccccn2)cc1 (configuration not stated),inactive: 111%
7,CN(C)CCOC(=O)C(O)(c1ccccc1)C1CCCC1 (configuration not stated),inactive: 100%
8,Cc1c(NP(C)(=O)Oc2ccc(C(C)C)cc2)c(=O)n(-c2ccccc2)n1C (configuration not stated),inactive: 106%
9,COc1ccccc1OP(C)(=O)Nc1ccc(C)cc1C (configuration not stated),inactive: 96.3%
10,CP(=O)(Nc1ccccn1)Oc1ccccc1 (configuration not stated),inactive: 96.8%
11,CCc1ccc(OP(C)(=O)O)cc1,inactive: 96.8%
12,COc1ccccc1OP(C)(=O)Nc1c(C)n(C)n(-c2ccccc2)c1=O (configuration not stated),inactive: 101%
13,CP(=O)(Oc1ccccc1)N1CCOC1=O (configuration not stated),inactive: 109%
14,CC(C)(C)c1ccc(OP(C)(=O)O)cc1,inactive: 102%
15,CP(=O)(Nc1ccc(Cl)cc1)Oc1ccc(F)cc1 (configuration not stated),inactive: 101%
16,CP(=O)(OC12CC3CC(CC(C3)C1)C2)OC12CC3CC(CC(C3)C1)C2,inactive: 92.2%
